The data set in a line: storage stabilization of molten 3,4-dichloroaniline at 110° C. Conditions: 0.35 wt. % additive. As to the method:
Round bottom drying ampuls of 20 ml capacity were dried by heating and were then cooled under nitrogen. Ten ml of test samples consisting of molten 3,4-dichloroaniline containing candidate stabilizers were pipetted into the ampuls which were sealed under nitrogen and stored in a 110° C. oven. Periodically an ampul of each sample was removed from the oven and evaluated.

On to `NCCO` [ethanolamine], for which the Color result reads like this: (3 days) “Lt yellow”; (60 days) “Yellow”.
